{
  "sequences": {"note": "Sequences of proteins named here, by UniProt entry; tags and fusion partners are left off.", "UniProt P0DMS8, whole entry": "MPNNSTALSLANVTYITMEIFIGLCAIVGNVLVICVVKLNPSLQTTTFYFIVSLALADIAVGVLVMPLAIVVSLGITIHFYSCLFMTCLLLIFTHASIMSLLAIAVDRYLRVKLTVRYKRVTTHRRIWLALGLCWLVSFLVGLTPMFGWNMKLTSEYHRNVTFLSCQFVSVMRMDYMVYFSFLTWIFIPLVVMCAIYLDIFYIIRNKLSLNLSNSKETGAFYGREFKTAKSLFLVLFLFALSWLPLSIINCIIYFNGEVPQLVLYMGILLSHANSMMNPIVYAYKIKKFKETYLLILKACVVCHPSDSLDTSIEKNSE"},
  "source": "patent US8518957B2",
  "about": "“Methanocarba adenosine derivatives, pharmaceutical compositions, and method of reducing intraocular pressure” (The United States of America, as represented by the …, priority 2009, dated 2013)",
  "origin": "cited, not measured here",
  "target": "human A3AR (Homo sapiens, UniProt P0DMS8)",
  "conditions": "at 10 μM, relative to NECA 10 μM; values from Tosh et al.; cited from earlier work",
  "data": [
    {"smiles": "CNC(=O)[C@@]12C[C@@H]1[C@@H](n1cnc3c(NCc4cccc(Cl)c4)nc(C#CCCC(=O)NCCNC(=O)CCCCCNC(=O)CCCC[C@@H]4SC[C@@H]5NC(=O)N[C@@H]54)nc31)[C@H](O)[C@@H]2O", "values": [
      {"measurement": "% Inhibition of cAMP formation at hA3 AR", "value": "107 ± 18", "unit": "%"}
    ]}
  ]
}
